System: H1/NCa HA (A/New Caledonia/20/1999 (H1N1))
Type: binding, influenza A virus

Work on `CSCC[C@@H]1NC(=O)CNC(=O)CNC(=O)[C@H](C)NC(=O)[C@H](C(C)C)NC(=O)CNC(=O)[C@H](CC(C)C)NC(=O)[C@@H]2CCCN2C(=O)[C@H](CC(=O)O)NC(=O)[C@H](CCC(=O)O)NC(=O)[C@H](Cc2ccc(O)cc2)NC(=O)[C@H](CC(C)C)NC(=O)[C@H](CO)NC(=O)CNC(=O)[C@H]2CCCN2C(=O)[C@H](C(C)C)NC(=O)CNC1=O` [CP5] yielded an IC50 of 11.2 µM.
